Laboratory results reported in US20240209028A1, “CNP COMPOUNDS” (priority 2022, published 2024).
Where two headings read alike, the source gives them in different places.

Key:
[1] = PK after i.v. and s.c. administration to Göttingen minipig; details: female, Göttingen minipig and domestic LYD pig, in vivo, sc; Table 21 and 22 (minipig and domestic LYD pig); read-out: subcutaneous bioavailability (F)
Protocol: The purpose of this study was to investigate pharmacokinetic and pharmacodynamic properties after intravenous (i.v.) and subcutaneous (s.c.) administration to Gottingen Minipig and domestic LYD pig, and to estimate bioavailability after s.c. dosing. Quantitative plasma analysis of CNP and cGMP levels were performed as described in
Animals and dosing: The pharmacokinetic and pharmacodynamic studies in Gottingen Minipig or domestic LYD pig were conducted at CRO Minerva Imaging or Novo Nordisk A/S, respectively. CNP compounds were dosed to normal female 1) Gottingen minipigs 6-12 months of age with an average weight of 22 kg or 2) domestic LYD pigs 4-5 months of age with and average weight of 80 kg. At least one week prior to dosing, permanent central venous catheters were implanted for blood sampling and intravenous (i.v.) dosing. For subcutaneous (s.c.) dosing, the pigs were ultrasound scanned and the optimal injection area laterally on the neck marked by a permanent tattoo. An insulin pen (NovoPen Echo or NovoPen 4) and insulin needle (NovoFine 32G/4 mm or NovoTwist 32G/5 mm) were used for accurate deposition of the CNP formulations in the subcutaneous fat tissue with the needle perpendicular to the skin.
CNP compounds were formulated according to the principles in General Methods of Preparation—Method G and were either A) 8 mM sodium phosphate, 250 mM glycerol, pH 6.5, B) 5 mM sodium acetate, 250 mM glycerol, pH 4.0, C) 5 mM sodium acetate, 240 mM propylene glycol, pH=4.0, D) 8 mM sodium phosphate, 250 mM glycerol, pH 7.5 or E) 20 mM sodium phosphate, 223 mM propylene glycol, pH 6.0.
Intravenously, the CNP compounds were dosed at 30-60 nmol/kg to Minipig and 15-43 nmol/kg to domestic pig using formulations A-E. Subcutaneously, the CNP compounds were dosed at 55-62 nmol/kg to Minipig and 20-30 nmol/kg to domestic pig using formulations A-D.
Sampling: Blood samples of approximately 1 mL were collected pre dose and up to 14 days post dose into EDTA-coated tubes (8 mM) for cGMP and CNP compound analysis by LC-MS. In few instances, cGMP was only analysed up to 48 hours post dose after intravenous dosing in domestic LYD pig. The blood samples were kept on wet ice for maximum 30 minutes until centrifugation for 10 minutes at 4° C. and minimum 1500G, and the plasma samples were stored at −20° C. until analysis.
Plasma concentration-time profiles were analyzed by non-compartmental PK analysis using Phoenix WinNonlin 8.1, Pharsight Inc., Mountain View, CA, USA. Calculation of the area under the plasma concentration-time curve (AUC) was based on the “linear up log down” method, and uniform weighting was used for estimation of the terminal rate constant (λz). S.c. bioavailability (F) was calculated as the dose-normalized AUC (AUC/dose) after s.c. administration divided by the AUC/dose after i.v. administration. […]

[2] = PK of CNP compounds after i.v. and s.c. administration to rats; details: male, Sprague Dawley, in vivo, rat
Protocol: In order to assess the i.v. and s.c. PK/PD profile of CNP compounds of the present invention, formulations of CNP compounds were administered to rats, blood samples taken and exposure and cGMP response measured.
Quantitative plasma analysis of CNP-compounds: Plasma concentrations of CNP compounds were assayed by plasma protein precipitation and analysed by turboflow liquid chromatography mass spectrometry (TF-LC-MS). Calibrators were prepared by spiking either blank rat or minipig plasma with the relevant CNP compound in the range from 0.5 to 2000 nM. Calibrators, plasma blanks or study samples were prepared for TF-LC-MS by protein precipitation by adding three or four volumes of either ethanol or methanol containing 20 nM of internal standard to one volume of sample. For some compounds, formic acid was added to the precipitation reagent (the final concentration was 1% v/v). After the addition of the precipitation reagent, the mixture was centrifuged at 6200 rpm at 4° C. for 30 minutes. After centrifugation, one volume of supernatant was mixed with two volumes of water (with 1% v/v formic acid). The mixture was analysed by TF-LC-MS using a Cyclone turboflow column (0.5×50 mm, ThermoFisher Scientific) and either a XBridge Protein BEH C4 3.5 μm 300 Åor a XBridge Protein BEH C18 3.5 μm 130 Åanalytical column (both were 50×2.1 mm and obtained from Waters). […] The mass spectrometer was operated in positive ionisation mode. A TSQ Altis mass spectrometer (ThermoFisher Scientific) was used as detector in selected reaction monitoring mode (specific transition were optimised for each CNP compound). Linear calibration curves (weighed 1/×2) were used for calculating the concentration in the plasma samples. Quality control samples were included. The deviation between nominal and calculated concentration in the calibrators and quality control samples were below 15%.
Animals and dosing: Groups of 4-6 rats (male, Sprague Dawley, 350 g at arrival, Janvier, France) per compound and route of administration were dosed with a CNP compound formulated either in A) 8 mM sodium phosphate, 250 mM glycerol, 0.007% polysorbate 20, pH 7.4 or B) 5 mM sodium acetate, 250 mM glycerol, 0.007% polysorbate 20, pH 4.0 depending on the respective compound. S.c. dose was 300 nmol/kg, at a concentration of […] resulting in a dosing volume of 0.3 mL/kg, whereas i.v. dose was 100 nmol/kg, at a concentration of […] resulting in a dosing volume of 1 mL/kg. […]
Analysis: PK parameters were calculated by non-compartment analysis (NCA) using software Phoenix WinNonlin (ver. 8.1 or later, Certara) for each animal. Clearance (Cl) was calculated as: Dose/AUCinf (linear up, log down). […] Bioavailability was calculated as dose normalized AUC's: (AUC(sc)/Dose(sc))/(AUC(iv)/Dose(iv)). […]

Structure (SMILES): CCCC[C@@H]1NC(=O)[C@H](CO)NC(=O)CNC(=O)[C@H]([C@@H](C)CC)NC(=O)[C@H](CCCNC(=N)N)NC(=O)[C@H](CC(=O)O)NC(=O)[C@H](CC(C)C)NC(=O)[C@H](CCCCN)NC(=O)[C@H](CC(C)C)NC(=O)CNC(=O)[C@H](Cc2ccccc2)NC(=O)[C@@H](NC(=O)CNC(=O)[C@H](CCCCN)NC(=O)[C@H](CO)NC(=O)[C@H](CC(C)C)NC(=O)CNC(=O)[C@H](CCCCN)NC(=O)[C@H](CCCCN)NC(=O)[C@H](CCC(N)=O)NC(=O)[C@H](C)NC(=O)CNC(=O)[C@H](CCCCN)NC(=O)[C@H](Cc2ccc(O)cc2)NC(=O)[C@H](CCCCN)NC(=O)[C@H](CCCNC(=N)N)NC(=O)[C@H](C)NC(=O)[C@H](CCC(N)=O)NC(=O)COCCOCCNC(=O)COCCOCCNC(=O)CC[C@H](NC(=O)CCCCCCCCCCCCCCCCC(=O)O)C(=O)O)CSSC[C@@H](C(=O)O)NC(=O)CNC(=O)[C@H](CC(C)C)NC(=O)CNC(=O)[C@H](CO)NC1=O [compound 0312]
- bioavailability [1]: 7 to 13%
- clearance ([2]; iv, i.v., about 100 nmol/kg, read-out: Cl (L/hr/kg), i.v. administration (converted)): 0.00738 L/h/kg
- half-life ([2]; iv, i.v., about 100 nmol/kg, read-out: T½ (hr), i.v. administration (converted)): 9.4 h
- bioavailability ([2]; sc, s.c. bioavailability, about 300 nmol/kg, read-out: F (%), s.c. administration): 20.2%
- half-life ([2]; sc, s.c., about 300 nmol/kg, read-out: T½ (hr), s.c. administration (converted)): 8.24 h
